Test results: PubChem BioAssay AID1347428 (National Center for Advancing Translational Sciences (NCATS), 2020)
The list shows a part of the results, in another mix than the full data. Some tests of the compounds listed are not included; inactive here does not mean inactive elsewhere. Results filed as inconclusive are left out. Active and inactive are the calls of the source. Calls come from the whole dose curve; as a rule, active = well fitted inhibition curve with a large enough effect; inconclusive = small, poorly fitted or top-dose-only effect; inactive = no such curve, though single readings can be large or run the other way.

By UniProt entry, the sequences of proteins in these tests, tags left out.
UniProt Q9GZX7, whole entry: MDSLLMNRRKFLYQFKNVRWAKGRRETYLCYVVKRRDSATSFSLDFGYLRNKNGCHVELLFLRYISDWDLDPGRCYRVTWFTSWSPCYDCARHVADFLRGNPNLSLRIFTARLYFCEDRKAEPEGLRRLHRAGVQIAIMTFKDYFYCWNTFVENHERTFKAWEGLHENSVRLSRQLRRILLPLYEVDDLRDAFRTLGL

Target: Single-stranded DNA cytosine deaminase (Homo sapiens) (UniProt Q9GZX7)
Test: Primary qHTS assay for inhibitors of Activation Induced Cytidine Deaminase (AID): AID signal; note: nearly all actives have a fitted effect of over 25% in size
Settings: AID deamination FRET fluorescence, UDG-coupled, 4 h; at 115 µM (top of the series)
Description: Assay Provider (PI) Patricia Gearhart Ph.D.
National Institute on Aging
National Institute of Health (NIH), Bethesda, MD
Assay Provider (PI) Rahul Kohli Ph.D.
Perelman School of Medicine
University of Pennsylvania, Philadelphia, PA
Activation-Induced Deaminase (AID) is a cytosine deaminase which converts cytosine into uracil within stretches of ssDNA. The presence of uracil in DNA initiates a cascade of mutagenic DNA repair to introduce point mutations and DNA double strand breaks. Specific targeting of AID to the immunoglobulin heavy chain loci (Igh) promotes mutagenesis in the antibody variable region for somatic hypermutation (SHM) or switch regions leading to class switch recombination (CSR). However, AID also plays a role in accumulating unnecessary mutations across the genome. Mis-targeting of AID results in the initiation of tumor development and leads to greater drug resistance among cancer cells when continually expressed. To identify an AID inhibitor, a small molecule library will be screened in collaboration with NCATS core facility at NIH. To confirm biological function, inhibitors will be examined in an in vitro murine B-cell activation assay and subsequent secondary validation screens. Top molecules will be further screened to identify inhibitory efficacy against a wild type primary splenocytes assay. Using these approaches, we hope to identify a small molecule with great efficacy and low toxicity for use as a molecular probe to further characterize AID's intricacies, or even as a therapeutic.
A FRET based analysis of cytosine deamination, was developed to identify potential inhibitors of AID catalytic activity. This screen has two signal output, Read 1 evaluates the AID inhibition response. The second readout (Read 2) evaluates UDG response and is uses as a counterscreen to exclude false positive inhibitors. Inhibition in AID and inactivity in the UDG signal is the desired outcome for this assay.
SEQUENCE No. (e.g., 1, 2, 3, etc.); […] (e.g., Cells, Incubation, Reagent, etc.); VALUE; DESCRIPTION
1a; Reagent; 3 uL; [4/3x] 1 uM AID/2.67 U/mL UDG
1b; Reagent; 3 uL; 2 U/mL UDG
1c; Reagent; 3 uL; 1 uM AID
2a; Compound; 46 nL; Follow-up plates (0.64 uM - 10 mM)
2b; Control; 46 nL; ATA ([…] - 10 mM)
3; Time; 10 min; incubation at room temperature
5; Time; 4 hr; incubation at room temperature
6; Reagent; 4 uL; [2x] 250 mM NaOH
7; Time; 15 sec; centrifuge at 1000 rpm
8; Time; 30 min; incubation at room temperature
9a; Detection; fluorescence (Read 1: AID); EnVision (PerkinElmer) plate reader, 540 excitation and 590 emission filters
9b; Detection; fluorescence (Read 2: UDG); EnVision (PerkinElmer) plate reader, 560 excitation and 665 emission filters
NOTES (numbers refer to sequence above)
1a; Reagents were dispensed in a medium-binding black solid-bottom Greiner plates (789176F) using a BioRptr liquid dispenser. Dispense 3 uL of [4/3x] 1 uM AID (provided by Kohli lab) and [4/3x] 2 U/mL UDG (NEB M0280L) into columns 1, 2, 5 to 48.
1b; Dispense 3 uL of [4/3x] 2 U/mL UDG into column 3.
1c; Dispense 3 uL of [4/3x] 1 uM AID into column 4.
2a; Compound (7-points [uM] (0.64; 3.2; 16; 80; 400; 2,000; 10,000; 20,000) double pin-transferred (Dip Factor = 2) using the Kalypsys (Wako USA) pintool equipped with a 1536 pinhead for a final concentration range of 7.32 nM - 114 uM.
2b; 10 mM Aurintricarboxylic Acid (Sigma A1895) (ATA, 8-point, n = 2, 1:2.5 dilution in column 2) double pin-transferred (Dip Factor = 2) using the Kalypsys (Wako USA) pintool equipped with a 1536 pinhead for a [final] range of 186 nM - 114 uM.
3; Room temperature incubation.
4; Dispense 1 uL of substrate mixture from the Kohli lab [4x] […] DJC20 and [4x] 250 nM DJC23 into columns 1 to 48 .
5; Room temperature incubation.
6; Dispense 4 uL of substrate mixture [2x] 250 mM NaOH into columns 1 to 48.
7; Centrifugation step to remove bubbles.
8; Room temperature incubation
9a; Fluorescence signal (column label AID) was read using the EnVision plate reader. […]
% is set by controls: 0 for no effect and ±100 for the full control effect.

Question: How did the activity change, negative = inhibition turn out when `O=C(CCC1CCCCC1)N1CCN(C/C=C/c2ccccc2)CC1` was run?
Answer: Its activity change, negative = inhibition is inactive: -16.6%.

Question: With `CN(C)C1(CNC(=O)c2cccc(Cl)c2)CCCCC1` as the molecule, how does the activity change, negative = inhibition read?
Answer: The activity change, negative = inhibition was inactive: -0.492%.

Question: How did the activity change, negative = inhibition turn out when `CN(C)C1(CNC(=O)c2ccccc2F)CCCCC1` was run?
Answer: Its activity change, negative = inhibition is inactive: 1.16%.

Question: `CN(C)C1(CNC(=O)c2ccccc2[N+](=O)[O-])CCCCC1` was tested. Which activity change, negative = inhibition did it give?
Answer: The activity change, negative = inhibition was inactive: 39%.

Question: `CCCCOc1ccccc1C(=O)NCC1(N(C)C)CCCCC1` was tested. Which activity change, negative = inhibition did it give?
Answer: The activity change, negative = inhibition was inactive: -22.8%.

Question: For `CN(C)C1(CNC(=O)c2cccs2)CCCCC1`, which activity change, negative = inhibition is on record?
Answer: Its activity change, negative = inhibition is inactive: 1.24%.

Question: `CN(C)CCOC(=O)C(O)(c1ccccc1)C1CCCCC1` (centres undefined) was tested. Which activity change, negative = inhibition did it give?
Answer: Its activity change, negative = inhibition is inactive: 3.14%.

Question: With `CCOc1cccc(C(=O)NCC2(N(C)C)CCCCC2)c1` as the molecule, how does the activity change, negative = inhibition read?
Answer: Its activity change, negative = inhibition is inactive: -5.76%.

Question: For `COc1ccc(C(=O)NCC2(N(C)C)CCCCC2)cc1Cl`, which activity change, negative = inhibition is on record?
Answer: The activity change, negative = inhibition was inactive: 15.2%.

Question: For `COc1cccc(C(=O)NCC2(N3CCOCC3)CCCCC2)c1`, which activity change, negative = inhibition is on record?
Answer: The activity change, negative = inhibition was inactive: -8.06%.

Question: With `CC(C)COc1ccc(C(=O)NCC2(N(C)C)CCCCC2)cc1` as the molecule, how does the activity change, negative = inhibition read?
Answer: The activity change, negative = inhibition was inactive: -11.8%.

Question: How did the activity change, negative = inhibition turn out when `Cc1cccc(C(=O)NCC2(N(C)C)CCCCC2)c1` was run?
Answer: Its activity change, negative = inhibition is inactive: 17.7%.

Question: Which activity change, negative = inhibition does the source give for `COc1cc(C(=O)NCC2(N(C)C)CCCCC2)cc(OC)c1OC` here?
Answer: The activity change, negative = inhibition was inactive: 1.83%.

Question: `CC(C)Oc1ccc(C(=O)NCC2(N(C)C)CCCCC2)cc1` was tested. Which activity change, negative = inhibition did it give?
Answer: Its activity change, negative = inhibition is inactive: -17%.
